Target: T1, linker and ligand-binding regions of the L. cuprina EcR polypeptide and partner protein (USP polypeptide) (Lucilia cuprina, UniProt O18531)
T1 construct: made in house; host or cells: recombinant baculovirus in insect Sf9 and Sf21 cells (extracts)
T1 sequence (O18531 366-757): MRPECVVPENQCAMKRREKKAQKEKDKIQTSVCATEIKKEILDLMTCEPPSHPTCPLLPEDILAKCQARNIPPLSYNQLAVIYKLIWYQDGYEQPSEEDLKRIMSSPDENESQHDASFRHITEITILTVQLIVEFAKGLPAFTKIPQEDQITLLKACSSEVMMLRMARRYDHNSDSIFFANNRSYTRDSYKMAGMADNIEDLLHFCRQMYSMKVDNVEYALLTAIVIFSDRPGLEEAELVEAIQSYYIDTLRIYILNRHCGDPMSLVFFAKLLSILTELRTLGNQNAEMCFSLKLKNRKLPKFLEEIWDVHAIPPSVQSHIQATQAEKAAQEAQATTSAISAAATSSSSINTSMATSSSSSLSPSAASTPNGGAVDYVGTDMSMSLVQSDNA
Assay: [3H]ponasterone A binding assay in Sf9 and Sf21 cells infected by recombinant baculovirus (modified method of Yund et al)
Settings: compared to the ecdysone holoreceptor in L. cuprina embryos; no specific binding with control virus (FIG. 3)

## [^3H]ponasterone A
  binding of labelled ligand in cells infected by the recombinant baculovirus: significant increase in the binding
